Biological target: T1, cloned human β1-adrenergic receptor (Homo sapiens, UniProt P08588)
T1 construct: expressed in transfected cells; host or cells: CHO (membranes)
Assay: [3H]-dihydroalprenolol binding on CHO cell membranes, β1-adrenergic receptor
Conditions: saturation experiments on CHO membranes; read-out: KD in CHO expressing the β1-adrenergic receptor
Description: To verify the selectivity of the ligands (I) for the cloned human adrenergic β1- and β2 receptors, compounds 1a-1h were submitted to binding tests (Table 2). At the concentration of [^3H]-dihydroalprenolol used in the binding experiments (see biological methods section), the specific bonds represent approximately 76% and 85% of the total binding respectively. […]. […]
The preconfluence cells were washed with cold PBS, removed from the surface of the plate, collected in cold lysis buffer (10×10^6/ml; 5 mM Tris/HCl, 2 mM EDTA, pH 7.4 at 4° C.) and homogenized with a Brinkmann Polytron (5 for 3×10 secs). […] The resultant membrane pellet was resuspended in cold incubation buffer (50 mM Tris/HCl, 10 mM MgCl2, pH 7.4 for the binding experiments on the β1-adrenergic receptors; 50 mM Tris/HCl, pH 7.4 for the binding experiments of on the β2-adrenergic receptors) and its protein content was then determined. […]
The saturation experiments were conducted by incubating the cell membranes (50 μg of protein) in 500 μl of incubation buffer, containing increasing concentrations of [^3H]-dihydroalprenolol (0.1 nM, 0.5 nM, 1 nM, 3 nM, 5 nM, 10 nM). […] The residual radioactivity of the filters was measured using a Beckmann LS6500 Multi-purpose scintillator. […]

The chains behind the UniProt entries cited, without tags or fusion partners.
UniProt P08588, whole entry: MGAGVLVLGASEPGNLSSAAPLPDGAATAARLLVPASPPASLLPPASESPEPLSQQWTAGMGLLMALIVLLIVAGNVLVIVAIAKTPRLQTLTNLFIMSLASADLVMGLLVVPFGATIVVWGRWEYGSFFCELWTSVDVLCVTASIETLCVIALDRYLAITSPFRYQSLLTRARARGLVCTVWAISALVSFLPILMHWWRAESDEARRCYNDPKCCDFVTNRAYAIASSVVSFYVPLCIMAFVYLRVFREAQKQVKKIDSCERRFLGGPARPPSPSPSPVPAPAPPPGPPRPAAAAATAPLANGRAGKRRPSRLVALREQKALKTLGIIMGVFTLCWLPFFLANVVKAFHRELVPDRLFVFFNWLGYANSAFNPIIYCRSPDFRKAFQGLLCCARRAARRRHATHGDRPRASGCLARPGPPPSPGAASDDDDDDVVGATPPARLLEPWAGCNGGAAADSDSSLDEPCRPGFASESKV

- Kd: 12.5 nM
Compound: C=CCc1ccccc1OCC(O)CNC(C)C (stereo not shown) [alprenolol, reference compound]

From US8354412B2, “Beta-3 receptor ligands and their use in therapy” (Universita' Degli Studi di Bari, priority 2006, dated 2013)
